According to patent US10519177B2, “Heterocyclic compounds and uses thereof” (Plexxikon Inc., priority 2013, dated 2019):

Legend:
MV-4-11 cells = experiment: Oncology cell growth assay MV-4-11 (CellTiter Glo); type: cell-based; settings: read-out: Cell activity (IC50 μM) MV-4-11 3d-Growth
Text: Published bromodomain inhibitors JQ1 and iBET 151 have shown activity in variety of cancer cells such leukemia and lymphoma, multiple myeloma cells, NUT midline carcinoma and glioblastoma cells (Dawson M A et al. 2011; Delmore J E 2011; Chen Z et al. 2013; Filippakopoulos P et al. 2010; Mertz J A et al. 2011; Ott C J et al. 2012). In this study, we test compounds in different cancer cell lines. MV-4-11 and MOLM-13 are AML cell lines harboring a MLL-AF4 and MLL-AF9 translocation, respectively. MM.1S is a multiple myeloma cell line. SK-N-AS, IMR-32 and SK-N-BE(2) are neuroblastoma cell lines. IMR-32 and SK-N-BE(2) cell lines harbor MYCN amplifications.
MV-4-11, MM.1S, IMR-32, SK-N-AS and SK-N-BE(2) were obtained from ATCC (IL, USA) and MOLM-13 were purchased from DSMZ (Braunschweig, German). Cells are cultured as recommended by their sources. For growth inhibition studies 3000 cells are seeded in wells of a 96-well plate in 75 μL of culture media. After several hours, growth media containing compounds of formula (I) are added to the wells. Compound at a maximal concentration of 5 mM was serially diluted 1:3 for a total of 8 point titration with DMSO as a control. A 1 μL aliquot of each dilution point is added to 249 μL growth media and 75 μL is added to each well containing cells, providing 10 μM compound at the maximum concentration point. The final concentration of DMSO in all wells is 0.2%. Cells are incubated for 72 hours, and 25 μL of CellTiter Glo Reagent (Promega GA, USA) is added to each well. Plates are shaken for approximately 10 minutes and chemiluminescent signal is read on Tecan microplate reader. The measured luminescence correlates directly with cell number.
All data is normalized to the mean of eight DMSO high control wells on each plate. A four parameter curve fit of the following formula was then applied: Y=a+(b−a)/(1+(x/c)^d) Where ‘a’ is the minimum, ‘b’ is the maximum, ‘c’ is the pIC50 and ‘d’ is the Hill slope. […] Myc Reporter Assay

BRD4-BD12 (1-477) = BRD4-BD12 (1-477) (Homo sapiens (Human), UniProt O60885); experiment: Alphascreen binding assay BRD4-BD12; settings: read-out: Biochemical activity (IC50 μM) BRD4(1 2) H4

## Cc1noc(C)c1-c1cnc2c(-c3ccc(C(=O)O)c(Cl)c3)cn(C(C)c3ccccn3)c2c1 (stereo not shown)
MV-4-11 cells
  IC50: < 1 µM
BRD4-BD12 (1-477)
  IC50: < 1 µM

## Cc1noc(C)c1-c1cnc2c(-c3ccc(C(=O)O)s3)cn(C(C)c3ccccn3)c2c1 (stereo not shown)
MV-4-11 cells
  IC50: 1 to 10 µM
BRD4-BD12 (1-477)
  IC50: < 1 µM

## Cc1noc(C)c1-c1cnc2c(-c3ccc(C(=O)O)c(F)c3F)cn(C(C)c3ccccn3)c2c1 (stereo not shown)
MV-4-11 cells
  IC50: < 1 µM
BRD4-BD12 (1-477)
  IC50: < 1 µM

## Cc1noc(C)c1-c1cnc2c(-c3ccc(C(=O)O)c(F)c3)cn(C(C)c3ccccn3)c2c1 (stereo not shown)
MV-4-11 cells
  IC50: < 1 µM
BRD4-BD12 (1-477)
  IC50: < 1 µM

## Cc1noc(C)c1-c1cnc2c(-c3ccc(F)c(C(=O)O)c3)cn(C(C)c3ccccn3)c2c1 (stereo not shown)
MV-4-11 cells
  IC50: 1 to 10 µM
BRD4-BD12 (1-477)
  IC50: < 1 µM

## CCC(c1ccccn1)n1cc(-c2cccc(CC(=O)O)c2)c2ncc(-c3c(C)noc3C)cc21 (stereo not shown)
MV-4-11 cells
  IC50: < 1 µM
BRD4-BD12 (1-477)
  IC50: < 1 µM

## COc1ncc(-c2cn(C(C)c3ccccn3)c3cc(-c4c(C)noc4C)cnc23)cn1 (stereo not shown)
MV-4-11 cells
  IC50: < 1 µM
BRD4-BD12 (1-477)
  IC50: < 1 µM

## Cc1noc(C)c1-c1cnc2c(-c3cnc(C4CC4)nc3)cn(C(C)c3ccccn3)c2c1 (stereo not shown)
MV-4-11 cells
  IC50: < 1 µM
BRD4-BD12 (1-477)
  IC50: < 1 µM

## Cc1noc(C)c1-c1cnc2c(-c3ccc(C(=O)O)cc3Cl)cn(C(C)c3ccccn3)c2c1 (stereo not shown)
MV-4-11 cells
  IC50: < 1 µM
BRD4-BD12 (1-477)
  IC50: < 1 µM

## COC(=O)Nc1ccc(-c2cn(C(C)c3ccccn3)c3cc(-c4c(C)noc4C)cnc23)cc1 (stereo not shown)
MV-4-11 cells
  IC50: < 1 µM
BRD4-BD12 (1-477)
  IC50: < 1 µM

## Cc1noc(C)c1-c1cnc2c(-c3ccc(C(=O)O)cc3F)cn(C(C)c3ccccn3)c2c1 (stereo not shown)
MV-4-11 cells
  IC50: < 1 µM
BRD4-BD12 (1-477)
  IC50: < 1 µM

## Cc1noc(C)c1-c1cnc2c(-c3ccc(C(=O)O)nc3)cn(C(C)c3ccccn3)c2c1 (stereo not shown)
MV-4-11 cells
  IC50: < 1 µM
BRD4-BD12 (1-477)
  IC50: < 1 µM

## Cc1noc(C)c1-c1cnc2c(-c3cccc(CC(=O)O)c3)cn(C(C)c3ccccn3)c2c1 (stereo not shown)
MV-4-11 cells
  IC50: 1 to 10 µM
BRD4-BD12 (1-477)
  IC50: < 1 µM

## Cc1cc(-c2cn(C(C)c3ccccn3)c3cc(-c4c(C)noc4C)cnc23)ccc1C(=O)O (stereo not shown)
MV-4-11 cells
  IC50: < 1 µM
BRD4-BD12 (1-477)
  IC50: < 1 µM
